This is a selection; strong and weak results do not stand in their true shares. Entries with a potency or affinity are not part of this list. The source made the active and inactive calls.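 How the source made its calls: active means spots per cell inhibited over 60%, with over 100 cells counted and total cytoplasm intensity under 500,000; inconclusive means wells with under 100 cells, flagged as likely toxic; inactive means the rest.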
biological target: G-protein coupled receptor 55 (Homo sapiens) (UniProt Q9Y2T6); experiment: GPR55 antagonists blocking LPI-driven arrestin recruitment, primary screen, imaging, U2OS, beta-arrestin-GFP, LPI agonist (AID 2013); conditions: U2OS GPR55 beta-arrestin-GFP translocation imaging, LPI antagonism; at 10 µM; stronger effect = higher value;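 further: U2OS cells stably carrying GPR55 and arrestin-GFP stimulated by 5 µM LPI near EC80; imaged beta-arrestin-GFP aggregate spots per cell after agonist stimulation; plate controls were LPI-stimulated DMSO wells for no effect and DMSO wells without LPI for full effect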

The chains behind the UniProt entries cited, without tags or fusion partners.
UniProt Q9Y2T6, whole entry: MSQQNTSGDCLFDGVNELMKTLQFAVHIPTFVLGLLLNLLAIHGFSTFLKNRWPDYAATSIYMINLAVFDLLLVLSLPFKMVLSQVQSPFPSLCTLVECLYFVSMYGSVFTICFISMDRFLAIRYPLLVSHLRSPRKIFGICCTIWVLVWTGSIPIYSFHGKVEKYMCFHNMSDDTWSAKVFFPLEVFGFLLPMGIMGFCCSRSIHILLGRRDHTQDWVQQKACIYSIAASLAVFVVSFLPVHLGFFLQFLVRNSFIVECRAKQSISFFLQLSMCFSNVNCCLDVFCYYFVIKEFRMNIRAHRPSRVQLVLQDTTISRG

| SMILES | inhibition |
| --- | --- |
| COc1cc(C(=O)NCC2(N(C)C)CCCCC2)ccc1OC(F)F | inactive: 0.6% |
| CCOC(=O)N1CCC(Nc2cccc(C)c2)CC1 | inactive: -9.2% |
| O=C(NCC1(N2CCCCC2)CCCCC1)c1ccc(F)cc1 | inactive: -1.9% |
| CCOC(=O)N1CCC(Nc2ccc(F)cc2)CC1 | inactive: -6.7% |
| COc1ccc(NC2CCN(CCc3ccccc3)CC2)c(OC)c1 | inactive: 11.1% |
| CCOc1ccc(C)cc1CN(CCCl)CCCl | inactive: 19% |
| CCOC(=O)N1CCC(Nc2ccc(OC)cc2)CC1 | inactive: 8.3% |
| O=C(OC1CN2CCC1CC2)C1c2ccccc2Oc2ccccc21 (configuration not stated) | inactive: 17.5% |
| N#CC1(Nc2ccccc2)CCN(Cc2ccccc2)CC1 | inactive: -5% |
| O=C(NCC1(N2CCOCC2)CCCCC1)c1cc2ccccc2o1 | inactive: 14.8% |
| Cc1cc(C)cc(N(C(=O)c2ccccc2)C2CCN(C(=O)OC(C)(C)C)CC2)c1 | inactive: -13.1% |
| CSc1ccccc1C(=O)NCC1(N2CCCCC2)CCCCC1 | inactive: 8.1% |
| O=C(NCC1(N2CCCCC2)CCCCC1)c1ccc(=O)[nH]c1 | inactive: 13.3% |
| COc1ccc(C(=O)NCC2(N3CCCCC3)CCCCC2)cc1 | inactive: 9.6% |
| CC(C)(C)OC(=O)N1CCC(N(C(=O)c2ccccc2)c2ccc(F)cc2)CC1 | inactive: 2.4% |
| COc1ccc(C(=O)NCC2(N3CCCCC3)CCCCC2)c(OC)c1OC | inactive: -1.3% |
| CCCOc1ccc(C(=O)NCC2(N(C)C)CCCCC2)cc1OC | inactive: 4.9% |
| COc1cc(OC)c(C(=O)NCC2(N(C)C)CCCCC2)cc1OC | inactive: -5.2% |
| COc1ccc(CN(CCCl)CCCl)cc1Cl | inactive: 7.9% |
| CN(C)c1cccc(C(=O)NCC2(N3CCCCC3)CCCCC2)c1 | inactive: -1.3% |
| CC(C)c1ccc(NC2CCN(C(=O)OC(C)(C)C)CC2)cc1 | inactive: 0.6% |
| COc1ccc(NC2CCN(C(=O)OC(C)(C)C)CC2)cc1 | inactive: 10.5% |
| CN1CCN(CCOC(=O)C(O)(c2ccccc2)c2ccccc2)CC1 | inactive: 6.6% |
| O=C(NCC1(N2CCOCC2)CCCCC1)c1cc(=O)[nH]c2ccccc12 | inactive: -0.3% |
| COc1cc(C(=O)NCC2(N3CCCCC3)CCCCC2)ccc1OC(F)F | inactive: 2% |
| O=C(NCC1(N2CCCCC2)CCCCC1)c1cccc(C(F)(F)F)c1 | inactive: 17.7% |

| SMILES | inhibition |
| --- | --- |
| O=C(NCC1(N2CCCCC2)CCCCC1)c1cccc([N+](=O)[O-])c1 | inactive: -4.4% |
| CCN1CCC(Nc2ccc(Cl)cc2)CC1 | inactive: 2.7% |
| N#CC1(Nc2ccccc2)CCN(CCc2ccccc2)CC1 | inactive: -3.7% |
| O=C(NCC1(N2CCCCC2)CCCCC1)c1ccc(OC(F)F)cc1 | inactive: 5.3% |
| c1ccc(CN2CCC(Nc3ccccc3)CC2)cc1 | inactive: -2.9% |
| CCCN1CCC(Nc2cc(OC)cc(OC)c2)CC1 | inactive: 8.8% |
| CN(C)C1(CNC(=O)c2cccc(C#N)c2)CCCCC1 | inactive: 11.7% |
| CC(C)(C)OC(=O)N1CCC(N(C(=O)c2ccccc2)c2ccc(Cl)cc2)CC1 | inactive: -3.2% |
| N#Cc1ccc(C(=O)NCC2(N3CCCCC3)CCCCC2)cc1 | inactive: 4% |
| O=C(OC1CN2CCC1CC2)C1c2ccccc2C=Cc2ccccc21 (configuration not stated) | inactive: -10.9% |
| N/C(=N\O)c1c(N)no[n+]1[O-] | inactive: 2.5% |
| CCOC(=O)N1CCC(Nc2ccc(C)cc2)CC1 | inactive: -0.6% |
| COc1ccc(C(=O)NCC2(N3CCOCC3)CCCCC2)cc1OC | inactive: 8.6% |
| CN1CCC(Nc2ccc(Cl)cc2)CC1 | inactive: 6.8% |
| CCC(CO)(C(=O)OC1CN2CCC1CC2)c1ccccc1 (configuration not stated) | inactive: -18.7% |
| COc1cccc(C(=O)N(c2cc(C)cc(C)c2)C2CCN(C(=O)OC(C)(C)C)CC2)c1 | inactive: 1.9% |
| COc1cc(OC)cc(C(=O)NCC2(N3CCOCC3)CCCCC2)c1 | inactive: 6.7% |
| CCCOc1ccc(C(=O)NCC2(N(C)C)CCCCC2)cc1 | inactive: -7.9% |
| CC(C)(C)OC(=O)N1CCC(Nc2ccccc2)CC1 | inactive: -1.9% |
| O=C(O)C1(Nc2ccccc2)CCN(Cc2ccccc2)CC1 | inactive: 4% |
| CCOc1ncccc1C(=O)NCC1(N2CCOCC2)CCCCC1 | inactive: 7.7% |
| CN1CCC(Nc2ccc(F)c(Cl)c2)CC1 | inactive: -2.2% |
| CN(C)c1ccc(C(=O)NCC2(N3CCCCC3)CCCCC2)cc1 | inactive: 14.1% |
| CCN1CCC(Nc2cccc(F)c2)CC1 | inactive: -3.8% |
| Fc1ccccc1NC1CCN(Cc2ccccc2)CC1 | inactive: -0.3% |
| COc1cc(OC)cc(C(=O)NCC2(N3CCCCC3)CCCCC2)c1 | inactive: 0.3% |

— PubChem BioAssay AID2013 (Sanford-Burnham Center for Chemical Genomics, 2009)
